# Columns and labels:
# CHO-K1 cells [1] = test: In vitro micronucleus assay, long-term exposure; details: long-term (24 h), without S9 mix, positive control 0.6 μg/mL
# CHO-K1 cells [2] = test: In vitro micronucleus assay, short-term exposure; details: without S9 mix, positive control 0.6 μg/mL
structure (smiles),measurement,setting,value
"CO[C@@]12[C@H](COC(N)=O)C3=C(C(=O)C(C)=C(N)C3=O)N1C[C@@H]1N[C@@H]12 [Mitomycin C, mitomycin C]",MNC2 (micronucleated cell rate),CHO-K1 cells [1],32 ‰
same,MNC1 (micronucleated cell rate),CHO-K1 cells [2],28 ‰

# From US11220482B2, “Aminopyridinemethanol compounds and their use” (UNIVERSITE AMIENS PICARDIE JULES VERNE, priority 2017, dated 2022)
